Results taken from patent US12616739B2, “GLP-1 prodrugs and uses thereof” (Novo Nordisk A/S, priority 2020, dated 2026).

experiment: Prodrug to drug conversion half-life in vitro, PBS pH 7.4, 37° C.; format: physicochemical
Protocol: General Methods for Measuring Conversion Half-Life
The assay was performed to investigate the conversion half-life of prodrug to drug of the prodrugs of the invention.
Peptide stock solutions were prepared by dissolving freeze-dried powder in PBS buffer to a target of 200 μM. PBS-buffer was Dulbecco's Phosphate Buffered Saline without CaCl2 and MgCl2, gibco 14190-094 adjusted to pH=7.4. The pH of the peptide stock solutions was adjusted to 7.4 with 0.02 M HCl or 0.02M NaOH. Samples were filled in Agilent HPLC vials with fixed insert. Vials were capped to prevent evaporation. The HPLC vials were incubated at 37° C. and samples were withdrawn at different time points over a period of 2 weeks, flash frozen at −80° C., and stored at −20° C. until analysis.
Sample analysis was carried out using UPLC coupled to UV detection at 215 nm and MS (UPLC-UV-MS). One μl of sample was injected on to a Waters Acquity UPLC with a flow-through-needle injection system and on to a Waters Acquity CSH C18 column (1*150 mm), with a particle size of 1.7 μm and held at 55° C. A flow-rate of 100 μl/min was delivered with a Binary solvent manager pump having 0.1% formic acid in water as solvent A and 0.1% formic acid in acetonitrile as solvent B. Gradient elution was carried out using 15-32% B from 0 to 4 min followed by 32 to 48% B from 4 to 54 min.
The identity of the prodrug was confirmed by MS and the peak purity, area %, from the UV signal at 215 nm was plotted as the natural logarithm against time and the slope (k) was used to calculate the first order half-life (T½)=T½=Ln(2)/k.

| SMILES | half-life [h] |
| --- | --- |
| CC[C@H](C)[C@H](NC(=O)[C@H](Cc1ccccc1)NC(=O)[C@H](CCC(=O)O)NC(=O)[C@H](CCCCNC(=O)COCCOCCNC(=O)COCCOCCNC(=O)CC[C@H](NC(=O)CCCCCCCCCCCCCCCCC(=O)O)C(=O)O)NC(=O)[C@H](C)NC(=O)[C@H](C)NC(=O)[C@H](CCC(N)=O)NC(=O)CNC(=O)[C@H](CCC(=O)O)NC(=O)[C@H](CC(C)C)NC(=O)[C@H](Cc1ccc(O)cc1)NC(=O)[C@H](CO)NC(=O)[C@H](CO)NC(=O)[C@@H](NC(=O)[C@H](CC(=O)O)NC(=O)[C@H](CO)NC(=O)[C@@H](NC(=O)[C@H](Cc1ccccc1)NC(=O)[C@@H](NC(=O)CNC(=O)[C@H](CCC(=O)O)NC(=O)C(C)(C)NC(=O)[C@H](Cc1c[nH]cn1)NC(=O)CN(CCNC(=O)[C@H](CO)NC(=O)CC[C@H](NC(=O)CCCCCCCCCCCCCCCCC(=O)O)C(=O)O)C(=O)CN)[C@@H](C)O)[C@@H](C)O)C(C)C)C(=O)N[C@@H](C)C(=O)N[C@@H](Cc1c[nH]c2ccccc12)C(=O)N[C@@H](CC(C)C)C(=O)N[C@H](C(=O)N[C@@H](CCCNC(=N)N)C(=O)NCC(=O)N[C@@H](CCCNC(=N)N)C(=O)NCC(=O)O)C(C)C [Chem. 29, Gly-N^α-2-[[(2S)-2-[[(4S)-4-carboxy-4-(17-carboxyheptadecanoylamino)butanoyl]amino]-3-hydroxypropanoyl]amino]ethyl-Gly-semaglutide] | 218 |
| CC[C@H](C)[C@H](NC(=O)[C@H](Cc1ccccc1)NC(=O)[C@H](CCC(=O)O)NC(=O)[C@H](CCCCNC(=O)COCCOCCNC(=O)COCCOCCNC(=O)CC[C@H](NC(=O)CCCCCCCCCCCCCCCCC(=O)O)C(=O)O)NC(=O)[C@H](C)NC(=O)[C@H](C)NC(=O)[C@H](CCC(N)=O)NC(=O)CNC(=O)[C@H](CCC(=O)O)NC(=O)[C@H](CC(C)C)NC(=O)[C@H](Cc1ccc(O)cc1)NC(=O)[C@H](CO)NC(=O)[C@H](CO)NC(=O)[C@@H](NC(=O)[C@H](CC(=O)O)NC(=O)[C@H](CO)NC(=O)[C@@H](NC(=O)[C@H](Cc1ccccc1)NC(=O)[C@@H](NC(=O)CNC(=O)[C@H](CCC(=O)O)NC(=O)C(C)(C)NC(=O)[C@H](Cc1c[nH]cn1)NC(=O)CN(CCNC(=O)CNC(=O)CC[C@H](NC(=O)CCCCCCCCCCCCCCCCC(=O)O)C(=O)O)C(=O)CN)[C@@H](C)O)[C@@H](C)O)C(C)C)C(=O)N[C@@H](C)C(=O)N[C@@H](Cc1c[nH]c2ccccc12)C(=O)N[C@@H](CC(C)C)C(=O)N[C@H](C(=O)N[C@@H](CCCNC(=N)N)C(=O)NCC(=O)N[C@@H](CCCNC(=N)N)C(=O)NCC(=O)O)C(C)C [Chem. 30, Gly-N^α-2-[[2-[[(4S)-4-carboxy-4-(17-carboxyheptadecanoylamino)butanoyl]amino]acetyl]amino]ethyl-Gly-semaglutide] | 202 |
| CC[C@H](C)[C@H](NC(=O)[C@H](Cc1ccccc1)NC(=O)[C@H](CCC(=O)O)NC(=O)[C@H](CCCCNC(=O)COCCOCCNC(=O)COCCOCCNC(=O)CC[C@H](NC(=O)CCCCCCCCCCCCCCCCC(=O)O)C(=O)O)NC(=O)[C@H](C)NC(=O)[C@H](C)NC(=O)[C@H](CCC(N)=O)NC(=O)CNC(=O)[C@H](CCC(=O)O)NC(=O)[C@H](CC(C)C)NC(=O)[C@H](Cc1ccc(O)cc1)NC(=O)[C@H](CO)NC(=O)[C@H](CO)NC(=O)[C@@H](NC(=O)[C@H](CC(=O)O)NC(=O)[C@H](CO)NC(=O)[C@@H](NC(=O)[C@H](Cc1ccccc1)NC(=O)[C@@H](NC(=O)CNC(=O)[C@H](CCC(=O)O)NC(=O)C(C)(C)NC(=O)[C@H](Cc1c[nH]cn1)NC(=O)CN(CCCCCCNC(=O)CC[C@H](NC(=O)CCCCCCCCCCCCCCC(=O)O)C(=O)O)C(=O)CN)[C@@H](C)O)[C@@H](C)O)C(C)C)C(=O)N[C@@H](C)C(=O)N[C@@H](Cc1c[nH]c2ccccc12)C(=O)N[C@@H](CC(C)C)C(=O)N[C@H](C(=O)N[C@@H](CCCNC(=N)N)C(=O)NCC(=O)N[C@@H](CCCNC(=N)N)C(=O)NCC(=O)O)C(C)C [Chem. 34, Gly-N^α-6-[[(4S)-4-carboxy-4-(15-carboxypentadecanoylamino)butanoyl]amino]hexyl-Gly-semaglutide] | 88.8 |
| CC[C@H](C)[C@H](NC(=O)[C@H](Cc1ccccc1)NC(=O)[C@H](CCC(=O)O)NC(=O)[C@H](CCCCNC(=O)COCCOCCNC(=O)COCCOCCNC(=O)CC[C@H](NC(=O)CCCCCCCCCCCCCCCCC(=O)O)C(=O)O)NC(=O)[C@H](C)NC(=O)[C@H](C)NC(=O)[C@H](CCC(N)=O)NC(=O)CNC(=O)[C@H](CCC(=O)O)NC(=O)[C@H](CC(C)C)NC(=O)[C@H](Cc1ccc(O)cc1)NC(=O)[C@H](CO)NC(=O)[C@H](CO)NC(=O)[C@@H](NC(=O)[C@H](CC(=O)O)NC(=O)[C@H](CO)NC(=O)[C@@H](NC(=O)[C@H](Cc1ccccc1)NC(=O)[C@@H](NC(=O)CNC(=O)[C@H](CCC(=O)O)NC(=O)C(C)(C)NC(=O)[C@H](Cc1c[nH]cn1)NC(=O)CN(CCCCNC(=O)CC[C@H](NC(=O)CCCCCCCCCCCCCCC(=O)O)C(=O)O)C(=O)[C@@H](N)CCCNC(=N)N)[C@@H](C)O)[C@@H](C)O)C(C)C)C(=O)N[C@@H](C)C(=O)N[C@@H](Cc1c[nH]c2ccccc12)C(=O)N[C@@H](CC(C)C)C(=O)N[C@H](C(=O)N[C@@H](CCCNC(=N)N)C(=O)NCC(=O)N[C@@H](CCCNC(=N)N)C(=O)NCC(=O)O)C(C)C [Chem. 35, Arg-N^α-4-[[(4S)-4-carboxy-4-(15-carboxypentadecanoylamino)butanoyl]amino]butyl-Gly-semaglutide, reference compound] | 16.8 |

Second part, the molecule after the results:

| half-life [h] | SMILES |
| --- | --- |
| 192 | CC[C@H](C)[C@H](NC(=O)[C@H](Cc1ccccc1)NC(=O)[C@H](CCC(=O)O)NC(=O)[C@H](CCCCNC(=O)COCCOCCNC(=O)COCCOCCNC(=O)CC[C@H](NC(=O)CCCCCCCCCCCCCCCCC(=O)O)C(=O)O)NC(=O)[C@H](C)NC(=O)[C@H](C)NC(=O)[C@H](CCC(N)=O)NC(=O)CNC(=O)[C@H](CCC(=O)O)NC(=O)[C@H](CC(C)C)NC(=O)[C@H](Cc1ccc(O)cc1)NC(=O)[C@H](CO)NC(=O)[C@H](CO)NC(=O)[C@@H](NC(=O)[C@H](CC(=O)O)NC(=O)[C@H](CO)NC(=O)[C@@H](NC(=O)[C@H](Cc1ccccc1)NC(=O)[C@@H](NC(=O)CNC(=O)[C@H](CCC(=O)O)NC(=O)C(C)(C)NC(=O)[C@H](Cc1c[nH]cn1)NC(=O)CN(CCNC(=O)[C@H](CCC(=O)O)NC(=O)CCCCCCCCCCCCCCCCC(=O)O)C(=O)CN)[C@@H](C)O)[C@@H](C)O)C(C)C)C(=O)N[C@@H](C)C(=O)N[C@@H](Cc1c[nH]c2ccccc12)C(=O)N[C@@H](CC(C)C)C(=O)N[C@H](C(=O)N[C@@H](CCCNC(=N)N)C(=O)NCC(=O)N[C@@H](CCCNC(=N)N)C(=O)NCC(=O)O)C(C)C [Chem. 31, Gly-N^α-2-[[(4S)-4-carboxy-2-(17-carboxyheptadecanoylamino)butanoyl]amino]ethyl-Gly-semaglutide] |
| 86.4 | CC[C@H](C)[C@H](NC(=O)[C@H](Cc1ccccc1)NC(=O)[C@H](CCC(=O)O)NC(=O)[C@H](CCCCNC(=O)COCCOCCNC(=O)COCCOCCNC(=O)CC[C@H](NC(=O)CCCCCCCCCCCCCCCCC(=O)O)C(=O)O)NC(=O)[C@H](C)NC(=O)[C@H](C)NC(=O)[C@H](CCC(N)=O)NC(=O)CNC(=O)[C@H](CCC(=O)O)NC(=O)[C@H](CC(C)C)NC(=O)[C@H](Cc1ccc(O)cc1)NC(=O)[C@H](CO)NC(=O)[C@H](CO)NC(=O)[C@@H](NC(=O)[C@H](CC(=O)O)NC(=O)[C@H](CO)NC(=O)[C@@H](NC(=O)[C@H](Cc1ccccc1)NC(=O)[C@@H](NC(=O)CNC(=O)[C@H](CCC(=O)O)NC(=O)C(C)(C)NC(=O)[C@H](Cc1c[nH]cn1)NC(=O)CN(CCCNC(=O)CC[C@H](NC(=O)CCCCCCCCCCCCCCC(=O)O)C(=O)O)C(=O)CN)[C@@H](C)O)[C@@H](C)O)C(C)C)C(=O)N[C@@H](C)C(=O)N[C@@H](Cc1c[nH]c2ccccc12)C(=O)N[C@@H](CC(C)C)C(=O)N[C@H](C(=O)N[C@@H](CCCNC(=N)N)C(=O)NCC(=O)N[C@@H](CCCNC(=N)N)C(=O)NCC(=O)O)C(C)C [Chem. 32, Gly-N^α-3-[[(4S)-4-carboxy-4-(15-carboxypentadecanoylamino)butanoyl]amino]propyl-Gly-semaglutide] |
| 91.2 | CC[C@H](C)[C@H](NC(=O)[C@H](Cc1ccccc1)NC(=O)[C@H](CCC(=O)O)NC(=O)[C@H](CCCCNC(=O)COCCOCCNC(=O)COCCOCCNC(=O)CC[C@H](NC(=O)CCCCCCCCCCCCCCCCC(=O)O)C(=O)O)NC(=O)[C@H](C)NC(=O)[C@H](C)NC(=O)[C@H](CCC(N)=O)NC(=O)CNC(=O)[C@H](CCC(=O)O)NC(=O)[C@H](CC(C)C)NC(=O)[C@H](Cc1ccc(O)cc1)NC(=O)[C@H](CO)NC(=O)[C@H](CO)NC(=O)[C@@H](NC(=O)[C@H](CC(=O)O)NC(=O)[C@H](CO)NC(=O)[C@@H](NC(=O)[C@H](Cc1ccccc1)NC(=O)[C@@H](NC(=O)CNC(=O)[C@H](CCC(=O)O)NC(=O)C(C)(C)NC(=O)[C@H](Cc1c[nH]cn1)NC(=O)CN(CCCCCNC(=O)CC[C@H](NC(=O)CCCCCCCCCCCCCCC(=O)O)C(=O)O)C(=O)CN)[C@@H](C)O)[C@@H](C)O)C(C)C)C(=O)N[C@@H](C)C(=O)N[C@@H](Cc1c[nH]c2ccccc12)C(=O)N[C@@H](CC(C)C)C(=O)N[C@H](C(=O)N[C@@H](CCCNC(=N)N)C(=O)NCC(=O)N[C@@H](CCCNC(=N)N)C(=O)NCC(=O)O)C(C)C [Chem. 33, Gly-N^α-5-[[(4S)-4-carboxy-4-(15-carboxypentadecanoylamino)butanoyl]amino]pentyl-Gly-semaglutide] |
